Measurements published in patent US20260184712A1, “Heterocyclic Compounds as ENT Inhibitors and Compounds for Use in the Treatment of Cancers” (iTeos Belgium SA, priority 2022, published 2026).

Sequences of proteins named here, by UniProt entry; tags and fusion partners are left off.
UniProt Q99808, whole entry: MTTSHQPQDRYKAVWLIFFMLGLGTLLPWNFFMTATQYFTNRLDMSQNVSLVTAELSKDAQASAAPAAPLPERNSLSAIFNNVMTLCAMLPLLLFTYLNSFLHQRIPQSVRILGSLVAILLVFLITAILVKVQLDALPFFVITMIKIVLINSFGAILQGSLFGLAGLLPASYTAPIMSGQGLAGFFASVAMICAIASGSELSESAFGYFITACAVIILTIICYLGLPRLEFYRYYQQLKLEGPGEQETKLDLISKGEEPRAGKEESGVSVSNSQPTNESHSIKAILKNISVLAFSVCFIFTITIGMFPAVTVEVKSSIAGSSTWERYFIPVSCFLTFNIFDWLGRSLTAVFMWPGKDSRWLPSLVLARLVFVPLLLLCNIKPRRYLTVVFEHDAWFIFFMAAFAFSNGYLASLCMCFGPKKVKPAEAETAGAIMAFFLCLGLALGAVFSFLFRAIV

Experiments:
[1] = target: human ENT1 (Homo sapiens, UniProt Q99808); assay: ENT1 binding assay (competition with Sahenta-DY647 on JAR cells); details: read-out: Binding Assay IC50, IC50 categorized
Experimental: Compounds of the present disclosure were assayed to show ability to bind to human ENT1. The assay is a competition between a compound of interest and Sahenta-DY647, an ENT1 inhibitor that emits fluorescence (Ex=630 nm, Em=670 nm). By measuring the fluorescence at the end of the assay, one can assess the binding potency of the compounds tested. The compounds of the present disclosure were tested and compared to known ENT inhibitors, dilazep and NBMPR:
JAR cells expressing ENT1 were purchased from ATCC® (HTB-144TM). Cells were cultured in RPMI 1640 medium (LONZA®, #BE12-702F/U1) supplemented with 10% FBS (GIBCO®, #10270-106), 10 mM Hepes (LONZA®, #BE17-737E), 1 mM Sodium Pyruvate (LONZA®, #BE13-115E), and 2% Penicillin/Streptomycin (LONZA®, #DE17-603E) at 37° C. and 5% CO2.
The assay was conducted with the following buffer on the day of the assay: HBSS (LONZA®, #LO-527F) supplemented with 10 mM Hepes (LONZA®, #BE17-737E) and 0.1% BSA (Miltenyi®, #130-091-376).
JAR cells were resuspended in the described buffer. The compounds of interest and Sahenta-DY647 were diluted 200× with the described buffer.
A total of 50,000 cells were pre-incubated for 30 min at 4° C. with the compounds of the present disclosure before adding the corresponding amount of Sahenta-DY647 (100 nM) to the minimal concentration at Bmax and incubating for an additional 30 min at 4° C. The total volume of the reaction was 100 μL (50 μL of cells, 25 μL of the compounds of the present disclosure, and 25 μL of Sahenta-DY647) in a U-bottom 96 well plate (Greiner®, #650-180). The plates were washed 2× by centrifugation (4 min, 400 rcf at 4° C.) in the same buffer. Cells were re-suspended in 70 μL of the buffer and 50 μL was transferred to a Black 384 Optiplate (PerkinElmer®, #6007279). Fluorescence (Ex=630 nm, Em=670 nm) was acquired on a Spectramax i3x (Molecular Devices®).
Dose-response data from the compounds were analyzed with Graphpad Prism 9.1.1@software, using nonlinear regression applied to a sigmoidal dose-response model and the following equation:
Y=Bottom+(Top-Bottom)/(1+10^((LogIC50−X)*HillSlope)), with a shared bottom and top between the test reagent and dipyridamole.
Data from multiple experiments were compiled by taking the average pIC50 value for the reagent in question±the standard deviation (s.d.) and expressing it as an average IC50 value in nM.
The inhibitory effect of the test compound was expressed as a percentage of the inhibition of SAHENTA-DY647 binding.

[2] = test system: stimulated primary human T cells; assay: T cell proliferation assay, Condition A (X-VIVO15); details: read-out: T Cell proliferation (Condition A) IC50; Condition A: X-VIVO15 medium; anti-CD3/anti-CD28 beads, ATP, 4 days; CFSE-lo T cells
Experimental: (§1) The goal of this study was to determine the potency of ENT1 inhibitors by measuring the rescued proliferation of stimulated primary human T cells incubated in the presence of 100 uM Adenosine triphosphate (ATP), in baseline conditions (condition A) or in the presence of various proteins known to bind small molecules (condition B).
(§2) Venous blood from healthy volunteers, all of whom signed an informed consent approved by the Ethics Committee (FOR—UIC—BV-050-01-01 ICF_HBS_HD Version 5.0), was obtained by ImmuneHealth (Centre Hospitalier Universitaire Tivoli, La Louviere, Belgium). Mononuclear cells were collected by density gradient centrifugation, using SepMate-50 tubes (StemCell Technologies, Grenoble, France) and Lymphoprep (Stemcell Technologies) according to the manufacturer's instructions. CD3+ T cells were isolated by immunomagnetic negative selection, using the EasySep Human T Cell Isolation Kit (StemCell Technologies) as per the manufacturer's instructions. CD3+ T cells were stored in heat inactivated FBS (hiFBS; Gibco, ThermoFisher Scientific, Merelbeke, Belgium) and 10% DMSO in liquid nitrogen.
(§3) Purified human CD3+ T cells were thawed and washed once with RPMI1640 medium, UltraGlutamine (Lonza, Verviers, Belgium) containing 10% hiFBS. Cells were resuspended in PBS containing 10% hiFBS at 1×10^7 cells/ml. One volume of cells was combined with a matching volume of 2 μM CFSE solution in PBS, mixed well by pipetting, and incubated at room temperature for 5 minutes under rotation and protected from light. Excess CFSE was quenched by addition of PBS containing 10% hiFBS, and the cells were centrifuged (300×rcf, 7 minutes) and resuspended in X-VIVO15. Cells were again centrifuged and resuspended in X-VIVO15 for counting.
(§4) Cells were resuspended at 1.6×10^6 cells/mL in X-VIVO15 medium (Condition A) or X-VIVO15 medium containing 4% (v/v) HSA (Sigma-Aldrich, Diegem, Belgium) and 0.2% (v/v) ai-Acid Glycoprotein (Sigma-Aldrich, Diegem, Belgium) (Condition B).
[…] of cell suspension (2×10^4 cells) was added to wells of sterile flat-bottom 384-well plates. Cells were activated by adding […] of anti-CD3 anti-CD28 coated microbeads (Dynabeads human T-activator CD3/CD28; Life Technologies, Paisley, UK) suspended in X-VIVO15 medium or X-VIVO15 medium containing 4% (v/v) HSA and 0.2% (v/v) ai-Acid Glycoprotein at a ratio of one microbead per two cells. […]
(§5) Samples were run on a BD LSR Fortessa FACS machine (BD FACSDiva Software v9.0.1). Data were analyzed using FlowJo (BD, v10.7.1). T cell proliferation was determined by measuring the frequency of ‘CFSE^lo’ (i.e. CFSE-diluted).
(§6) T cell proliferation data were analyzed using FlowJo software (Version 10.6.2). […]
(§7) T cell proliferation was determined based on the percent CFSE^lo total T cells for each condition. […]

[3] = test system: stimulated primary human T cells; assay: T cell proliferation assay, Condition B (X-VIVO15, 2% HSA and 0.1% AAG); details: read-out: T Cell proliferation (Condition B) IC50; Condition B: X-VIVO15 medium containing HSA and α1-Acid Glycoprotein; anti-CD3/anti-CD28 beads, ATP, 4 days; CFSE-lo T cells
Experimental: as §1
Condition B: X-VIVO15, 2% Human Serum Albumin (HSA) and 0.1% α-1-Acid Glycoprotein (AAG)
as §2, §3, §4
12.5 mL of cell suspension (2×10^4 cells) was added to wells of sterile flat-bottom 384-well plates. […]
as §5, §6, §7

| Structure (SMILES) | IC50 [1] [µM] | IC50 [2] [µM] | IC50 [3] [µM] |
| --- | --- | --- | --- |
| C[C@H]1O[C@H](n2c(NCc3ccccc3)nc3c(OCc4ccc([N+](=O)[O-])cc4)ncnc32)[C@H](O)[C@@H]1O | 0.001 to 0.02 | < 0.001 | 0.02 to 0.5 |
| OC[C@H]1O[C@@H](n2cnc3c(NCc4ccccc4)ncnc32)[C@H](O)[C@@H]1O | > 0.5 |  |  |
| C[C@H]1O[C@@H](n2cnc3c(NS(=O)(=O)c4ccc([N+](=O)[O-])cc4)ncnc32)[C@H](O)[C@@H]1O | > 0.5 |  |  |
| CC(CO)Nc1nc2c(OCc3ccc([N+](=O)[O-])cc3)ncnc2n1[C@H]1O[C@H](C)[C@@H](O)[C@H]1O (some centres unmarked) | < 0.001 |  |  |
| OC[C@H]1O[C@@H](n2cnc3c(SCc4ccc(OC(F)F)cc4)ncnc32)[C@H](O)[C@@H]1O | 0.02 to 0.5 | 0.001 to 0.02 | > 0.5 |
| C[C@H]1O[C@@H](n2cnc3c(COc4cc(F)c(C#N)c(F)c4)ncnc32)[C@H](O)[C@@H]1O | > 0.5 |  |  |
| C[C@H]1O[C@H](n2c(NCc3cn[nH]c3)nc3c(OCc4ccc([N+](=O)[O-])cc4)ncnc32)[C@H](O)[C@@H]1O | < 0.001 |  |  |
| C[C@H]1O[C@@H](n2nc(C(=O)NC3CCCC3)c3c(OCc4ccc([N+](=O)[O-])cc4)ncnc32)[C@H](O)[C@@H]1O | 0.02 to 0.5 |  |  |
| C[C@H]1O[C@H](n2c(NCc3cnn(C)c3)nc3c(OCc4ccc([N+](=O)[O-])cc4)ncnc32)[C@H](O)[C@@H]1O | 0.001 to 0.02 | < 0.001 | 0.02 to 0.5 |
| C[C@H]1O[C@@H](n2cnc3c2ncn2cc(-c4ccc([N+](=O)[O-])cc4)cc32)[C@H](O)[C@@H]1O | > 0.5 |  |  |
| C[C@H]1O[C@@H](n2ncc3c(SCc4ccc([N+](=O)[O-])cc4)ncnc32)[C@H](O)[C@@H]1O | 0.02 to 0.5 | 0.001 to 0.02 | > 0.5 |
| CC(CCO)Nc1nc2c(OCc3ccc([N+](=O)[O-])cc3)ncnc2n1[C@H]1O[C@H](C)[C@@H](O)[C@H]1O (some centres unmarked) | < 0.001 |  |  |
